## Binding of CDR-mutated scFvs to a peptide of the spike HR2 region

Target: peptide PDVDLGDISGINAS, taken from heptad repeat 2 (HR2) of SARS-CoV-2 spike.

Parent scFv Ab-14: VH joined to VL by the linker GGGGSGGGGSGGGGS. Changes lie in the heavy chain CDRs alone.
VH: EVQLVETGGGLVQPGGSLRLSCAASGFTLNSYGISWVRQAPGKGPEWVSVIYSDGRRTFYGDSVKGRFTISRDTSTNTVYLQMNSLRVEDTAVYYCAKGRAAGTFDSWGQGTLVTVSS
VL: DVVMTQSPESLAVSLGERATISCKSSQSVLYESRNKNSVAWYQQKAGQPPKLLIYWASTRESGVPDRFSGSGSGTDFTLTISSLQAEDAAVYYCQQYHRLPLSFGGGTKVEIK

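The parent was found by panning a naive human phage display library on the peptide. AAYL49 was designed without a model: most single CDR substitutions and a random sample of double and triple ones. In AlphaSeq, yeast of one mating type display the scFv and yeast of the other type display the target. Mating (16 h, 30 °C) was followed by selection of diploids and sequencing of their barcodes. Scores were corrected for input abundance and mapped to Kd with protein pairs of known affinity run in the same pool. The assay was run in three technical replicates.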

Each variant is given by its three heavy chain CDRs, as the data file delimits them; those of the parent are GFTLNSYGIS, VIYSDGRRTFYGDSVK, GRAAGTFDS. Scale: log10 of Kd in nM, estimated from mating counts; low values are strong binders. Replicates are averaged; those with no signal do not enter the mean. A pair that was not seen in that replicate is written "ND"; this usually means weak binding, but a binder can also be missed. Three control strains display no target. For library AAYL49, 15% of the pairings with them gave a signal, with a median of 4.06 and one signal in twenty below 2.83, so weak values seen in few replicates may be background.

| replicates, log10 nM | mean log10 Kd (nM) | CDR-H1 | CDR-H2 | CDR-H3 |
|---|---|---|---|---|
| ND 4.04 ND | 4.04 | GFTLNSYGAS | VIYSEGRRTFYGDSVK | GRHAGTFDS |
| ND 3.73 ND | 3.73 | GFTLCSYGIS | NIYNDGRRTFYGDSVK | GRAAGTFDS |
| ND ND ND | ND | GFTLNSDGIS | VIYSDGRRTAYGDSVK | GRAAGLFDS |
| ND ND ND | ND | GFTLNSYGIS | VIDSDGRRTFYGDSVK | GEMAGTFDS |
| ND ND ND | ND | GFTLNSYMIS | VIYSDVRRTFYGSSVK | GRAAGTFDS |
| ND ND 4.44 | 4.44 | GFDLNSYGIS | VIYSDGRRTFYGDSVK | GRACGTFDT |
| ND ND ND | ND | GLTLNSYGIS | VIYSDGRRTFYKDSVK | GMAAGTFDS |
| ND ND ND | ND | GSTLNSYGIS | VIYSDGVRTFYGSSVK | GRAAGTFDS |
| 5.58 ND ND | 5.58 | GFTLNSYGIS | MIYGDGRRTFYGDSVK | GRAAGTYDS |
| ND ND ND | ND | GFTLNSYGIS | VIYQDSRRTFYGCSVK | GRAAGTFDS |
| ND 3.96 5.25 | 4.61 | CFTLNSYGIS | VIYSDGRRTFYGDSPI | GRAAGTFDS |
| 3.36 ND ND | 3.36 | GFTLNSNGIS | VIYSDGRRTFYGDSVP | GRAAGTFSS |
| 5.81 ND ND | 5.81 | GFHANSYIIS | VIYSDGRRTFYGDSVK | GRAAGTFDS |
| ND ND ND | ND | GFTLAWYGIS | VIYSDGRRTFYGDSVK | GRARGTFDS |
| 3.84 3.37 4.93 | 4.05 | GFTLESYGIS | AIYSDGRRTFYGDSVK | GRAAGTFDS |
| ND 3.81 ND | 3.81 | GFTLNSGGIS | VIYSDGRRTFYGDSVR | GRAKGTFDS |
| ND ND ND | ND | GFTLNSYGIS | VIFSDGRRTFYCDSVC | GRAAGTFDS |
| ND ND ND | ND | GFTLNLYGIS | VIYSDGRRTFYGDSVK | GRAAGLFHS |
| 1.67 1.85 1.50 | 1.67 | GFTLNSNGIS | VIYSDGRRTFYGDSVK | GRAFMTFDS |
| ND ND ND | ND | GFTLNSYGIS | VGYSDGRCTFYGDSVK | GRVAGTFDS |
| ND ND 2.86 | 2.86 | GFQLNSYCIS | VIYSNGRRTFYGDSVK | GRAAGTFDS |
| ND ND ND | ND | GFTLNSYGIS | VIYSDGRRNFYGDSVK | RRAAGTFDN |
| 5.86 5.44 4.74 | 5.35 | GYTLNSYVIS | VIYSGGRRTFYGDSVK | GRAAGTFDS |
| 4.16 ND ND | 4.16 | GFTGNSYGIS | SIYSDGRRTFYGDQVK | GRAAGTFDS |
| 4.33 3.81 6.23 | 4.79 | GFTLNSYGIS | VIYSDGRRYFYGDSNA | GRAAGTFDS |
| ND ND ND | ND | GFTLNSYGIS | VIYSDGRHTEYGDSVK | GRATGTFDS |
| ND 5.70 6.42 | 6.06 | GFTLNSYGIS | VIDSDGRRTFYGDSVK | QRAAGTFDS |
| ND ND ND | ND | PFTLNDYGIS | VIYSDGRRTFYGDSVK | ERAAGTFDS |
| 3.20 ND 4.99 | 4.10 | AFTLNSYGIS | VIYSDIRRTFFGDSVK | GRAAGTFDS |
| ND ND ND | ND | GFTLNSYGIS | VIYSDGRRTFYGDSVK | GFAIKTFDS |
| ND ND 3.69 | 3.69 | GNTLNSYEIS | VIYSDGRRTFIGDSVK | GRAAGTFDS |
| ND 3.39 ND | 3.39 | GFTLNSYGIS | KIYSDGRRTFYGVSVK | GRAAKTFDS |
| ND ND ND | ND | GFTGNSYGIS | VIYSDGRRTFYGMQVK | GRAAGTFDS |
| 2.32 1.99 2.21 | 2.17 | GFTLNSYGWH | VIYADGRRTFYGDSVK | GRAAGTFDS |
| 4.23 3.78 5.24 | 4.42 | GFTLNSYRIS | VIYSDGRRIFYGDSVK | GRAAGTMDS |
| ND ND ND | ND | GFTLNSYGIS | VIYSDGRRTFYGDSVK | GKAAGDIDS |
| 6.03 5.58 ND | 5.81 | GFTLNDYMIS | VIYWDGRRTFYGDSVK | GRAAGTFDS |
| ND ND ND | ND | GFTINSYGIS | VIYSDGRRTFYGDSVL | GRAAGDFDS |
| ND ND ND | ND | GFTLNSYGIA | VIYSDGRRTFYGDSVK | CRAAGTFDH |
| ND 3.49 ND | 3.49 | GFTLNSYQIS | RIYSDGRRTFEGDSVK | GRAAGTFDS |
| ND ND ND | ND | GFTLNGYGIS | VIYSDGRRTFMGDSVK | GMAAGTFDS |
| 3.43 3.26 4.20 | 3.63 | GFTLNSYGIS | DIMSDGRRTFYGDSVK | GRAAGTFDS |
| 2.68 ND 2.67 | 2.68 | GFTLNSHGIS | VIYSDGIRTFYGDQVK | GRAAGTFDS |
| 4.79 ND 4.82 | 4.81 | GFTLNSYGIC | VCYSDGRRTTYGDSVK | GRAAGTFDS |
| ND ND ND | ND | GFTLNRGGIS | VIYSDGRRTFYGDSVK | GRAAGTFDM |
| 6.02 ND ND | 6.02 | GFTLNSYGIS | WIYSDGRRTHLGDSVK | GRAAGTFDS |

The 7 strongest on average among those seen in every replicate, once more:

| CDR-H1 | CDR-H2 | CDR-H3 | replicates, log10 nM | mean log10 Kd (nM) |
|---|---|---|---|---|
| GFTLNSNGIS | VIYSDGRRTFYGDSVK | GRAFMTFDS | 1.67 1.85 1.50 | 1.67 |
| GFTLNSYGWH | VIYADGRRTFYGDSVK | GRAAGTFDS | 2.32 1.99 2.21 | 2.17 |
| GFTLNSYGIS | DIMSDGRRTFYGDSVK | GRAAGTFDS | 3.43 3.26 4.20 | 3.63 |
| GFTLESYGIS | AIYSDGRRTFYGDSVK | GRAAGTFDS | 3.84 3.37 4.93 | 4.05 |
| GFTLNSYRIS | VIYSDGRRIFYGDSVK | GRAAGTMDS | 4.23 3.78 5.24 | 4.42 |
| GFTLNSYGIS | VIYSDGRRYFYGDSNA | GRAAGTFDS | 4.33 3.81 6.23 | 4.79 |
| GYTLNSYVIS | VIYSGGRRTFYGDSVK | GRAAGTFDS | 5.86 5.44 4.74 | 5.35 |

Values reported by Engelhart et al. 2022, doi:10.1038/s41597-022-01779-4 (FLAb copy).